Earlier results, collected in US7576088B2, “Benzodioxole derivatives” (Hoffman-La Roche Inc., priority 2002, dated 2009).

The chains behind the UniProt entries cited, without tags or fusion partners.
UniProt P47746, whole entry: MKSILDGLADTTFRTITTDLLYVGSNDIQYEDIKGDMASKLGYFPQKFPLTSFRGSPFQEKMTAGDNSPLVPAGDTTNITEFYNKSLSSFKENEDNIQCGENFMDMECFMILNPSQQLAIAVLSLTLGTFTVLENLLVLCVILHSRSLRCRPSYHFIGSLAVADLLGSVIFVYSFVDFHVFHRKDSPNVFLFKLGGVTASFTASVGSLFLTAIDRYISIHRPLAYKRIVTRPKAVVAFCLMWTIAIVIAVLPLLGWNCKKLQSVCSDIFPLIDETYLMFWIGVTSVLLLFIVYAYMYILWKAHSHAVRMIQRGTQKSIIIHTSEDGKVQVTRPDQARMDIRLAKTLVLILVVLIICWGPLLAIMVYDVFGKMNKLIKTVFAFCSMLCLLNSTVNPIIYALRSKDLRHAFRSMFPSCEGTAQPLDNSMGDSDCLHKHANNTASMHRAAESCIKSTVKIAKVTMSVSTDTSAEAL

Target: CB1 receptor (Mus musculus, UniProt P47746)
Conditions: wild-type versus CB1 receptor knockout mice; cited from earlier work

Cc1c(C(=O)NN2CCCCC2)nn(-c2ccc(Cl)cc2Cl)c1-c1ccc(Cl)cc1 [SR141716A]
food intake: reduces food intake in wild-type but not knockout mice
